Earlier results in publication PMC8596132, “Rational Design of a Modality‐Specific Inhibitor of TRPM8 Channel against Oxaliplatin‐Induced Cold Allodynia” (Advanced Science, 2021).

Settings: patients taking the drug; cited from earlier work

Substance: oxaliplatin
- patients with acute neurotoxicity: up to 89%
